Target: Histamine H1 receptor (Homo sapiens, UniProt P35367)

Chains of the proteins cited; added tags and fusions are not shown.
UniProt P35367, whole entry: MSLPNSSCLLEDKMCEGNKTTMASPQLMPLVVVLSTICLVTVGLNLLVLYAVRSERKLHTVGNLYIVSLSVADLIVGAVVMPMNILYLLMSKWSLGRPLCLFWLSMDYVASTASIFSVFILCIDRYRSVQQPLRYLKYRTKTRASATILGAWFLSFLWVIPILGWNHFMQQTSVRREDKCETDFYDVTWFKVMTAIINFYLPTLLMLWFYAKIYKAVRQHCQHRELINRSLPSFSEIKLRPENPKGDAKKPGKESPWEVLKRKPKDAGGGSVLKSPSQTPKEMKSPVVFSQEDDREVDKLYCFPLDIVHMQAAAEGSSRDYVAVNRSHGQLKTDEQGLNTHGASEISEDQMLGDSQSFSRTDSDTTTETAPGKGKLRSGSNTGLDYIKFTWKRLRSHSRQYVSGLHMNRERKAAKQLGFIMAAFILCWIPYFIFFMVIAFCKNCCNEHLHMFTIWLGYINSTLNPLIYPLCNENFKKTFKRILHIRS

## CN1CCN(CC/C=C2/c3ccccc3Sc3ccc(S(=O)(=O)N(C)C)cc32)CC1 [MLS000028463]
  Ki: 6 nM

## CN1CCN(C2=c3ccccc3=Nc3ccc(Cl)cc3N2)CC1 [6-chloro-10-(4-methylpiperazin-1-yl)-2,9-diazatricyclo[9.4.0.0^{3,8}]pentadeca-1,3(8),4,6,10,12,14-heptaene]
  Ki: 2.8 nM
